# Test results from ChEMBL document CHEMBL4507258, “Data for DCP probe ABT-546” (2021).
# Target: Endothelin receptor type B (Homo sapiens) (UniProt P24530)
smiles,measurement,value
CCCCN(CCCC)C(=O)CN1C[C@@H](c2cc(OC)c3c(c2)OCO3)[C@H](C(=O)O)[C@H]1CC(C)(C)CCC [A-545],Ki,13 µM (not active)
